Molecules are shown by their SMILES.

The values below come from article PMC11318003 (ACS Medicinal Chemistry Letters, 2024).

The conditions of series [1]: pH 7.4.
The nature of a further series: physchem. The following applies: pH 7.4, aqueous buffer, kinetic from dmso stock.
Another series in a line: in vitro. To be noted: PAMPA, pH 7.4. For orientation: PAMPA measures passive passage across an artificial lipid membrane.
For series [2] the following is noted: PAMPA, pH 7.4.

`Cc1ccc(-c2nn(CO[C@@H]3C=CO[C@H](CO)[C@@H]3O)c(=O)c3ccccc23)cc1` [Compound 9]: the solubility in series [1] is listed as 94%. `O=c1c2ccccc2c(-c2ccccc2)nn1CO[C@@H]1C=CO[C@H](CO)[C@@H]1O` [Compound 2] came in with a solubility in series [1] greater than 95%. Further, the solubility at 24 h in “physchem” is greater than 95 µM. The Papp (usually a coefficient for how fast a substance crosses the barrier) in “in vitro” was 5.4 ± 0.88 ×10⁻⁶ cm/s.

As for `Cn1c(=O)c2c(ncn2C)n(C)c1=O` [Caffeine], the Permeability in series [2] is listed as 10.4 ± 1.69 10-6 cm/s. `O=c1c2ccccc2cnn1CO[C@@H]1C=CO[C@H](CO)[C@@H]1O` [Compound 1]: the Papp in “in vitro” is 1.9 ± 0.35 ×10⁻⁶ cm/s.
